Source: patent publication US20230218519A1, “FLUID GEL COMPOSITIONS” (The University of Birmingham, priority 2020, published 2023)

Test: Release assay from PEG-DA fluid gel (trans-well, UV/Vis)
Format: physicochemical
Conditions: 3% v/v PEG-DA fluid gel (Example 5.3, 500 rpm), into PBS at 37° C., 5 hrs
Procedure: • Active amounts: […] • Standard concentrations of active in PBS were prepared. • Standards were pipetted into a quartz cuvette (1 mm pathlength). • UV/Vis spectroscopy was used to measure absorbance between 200 and 700 nm wavelength. • Curves were plotted and used to determine standard curves which were used to determine concentrations. • 0.5 ml PBS was added to the well of a 24 well plate. • The PBS was incubated at 37° C. to equilibrate. • 0.1 ml of the fluid gel containing active was placed in a trans-well insert. • The trans-well insert was placed into a well containing PBS. • After a given time period the trans-well insert was removed and placed in a fresh well of PBS. • The release media was then removed and analysed using […] spectroscopy. Concentrations were derived from the standard curves and cumulative release plotted as a function of time.

dextran blue
release of active agent from fluid gel: able to release
